Earlier results on 1 compound are cited in patent US20220265830A1, “LONG-ACTING FORMULATIONS AND VEHICLES” (DURECT CORPORATION, priority 2019, published 2022).

For this series the following is noted: IM; cited from earlier work.

Regarding `C=CCN1CC[C@]23c4c5ccc(O)c4O[C@H]2C(=O)CC[C@@]3(O)[C@H]1C5` [Naloxone], the Half-life result is “IM 1.24 hrs”.
